Experimental data taken from ChEMBL document CHEMBL5634119, “Design and synthesis of 4th generation EGFR inhibitors against human triple (Del19/T790M/C797S) mutation” (Eur J Med Chem, 2023).

Assay: Selectivity index, ratio of IC50 for inhibition of EGFR del19/T790M/C797S triple mutant in mouse BAF3 cells assessed as reduction in cell proliferation to IC50 for inhibition of wild type EGFR in mouse BAF3 cells assessed as reduction in cell proliferation
Format: cell-based

| Compound | Ratio IC50 |
| --- | --- |
| CN1CCN(c2ccc(Nc3nc(Nc4ccccc4N(C)S(C)(=O)=O)c4cc[nH]c4n3)cc2F)CC1 | 11.9 |
| CN1CCN(c2ccc(Nc3nc(Nc4ccccc4N(C)S(C)(=O)=O)c4cc[nH]c4n3)cc2)CC1 | 4.2 |
